We go through one compound from ChEMBL document CHEMBL4610007, “Design and synthesis of boron-containing diphenylpyrimidines as potent BTK and JAK3 dual inhibitors” (Bioorg Med Chem, 2020).

The chains behind the UniProt entries cited, without tags or fusion partners. Where a name states a change or a piece, a line headed by the entry shows the natural chain unless it says otherwise.
UniProt Q06187: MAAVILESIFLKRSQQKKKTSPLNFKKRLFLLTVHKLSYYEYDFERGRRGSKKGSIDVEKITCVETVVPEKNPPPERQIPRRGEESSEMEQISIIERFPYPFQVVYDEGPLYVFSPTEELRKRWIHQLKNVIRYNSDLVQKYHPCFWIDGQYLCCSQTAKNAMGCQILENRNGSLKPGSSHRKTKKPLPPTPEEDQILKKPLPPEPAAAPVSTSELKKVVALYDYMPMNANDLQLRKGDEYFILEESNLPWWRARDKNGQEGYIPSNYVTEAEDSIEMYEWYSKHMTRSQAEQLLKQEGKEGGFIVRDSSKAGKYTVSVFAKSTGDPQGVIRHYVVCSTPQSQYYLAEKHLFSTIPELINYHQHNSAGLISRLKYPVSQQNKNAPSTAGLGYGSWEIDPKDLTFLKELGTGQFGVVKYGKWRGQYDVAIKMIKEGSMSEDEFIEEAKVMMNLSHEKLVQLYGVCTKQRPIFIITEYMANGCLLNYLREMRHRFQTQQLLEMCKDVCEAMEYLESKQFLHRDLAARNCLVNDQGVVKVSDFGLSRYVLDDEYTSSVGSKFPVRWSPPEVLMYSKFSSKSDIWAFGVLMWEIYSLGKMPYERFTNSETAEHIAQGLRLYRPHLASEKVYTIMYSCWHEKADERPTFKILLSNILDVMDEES

The target in the assay is Tyrosine-protein kinase BTK (Homo sapiens, UniProt Q06187).

As for `C=CC(=O)Nc1cccc(Nc2nc(Nc3ccc(OCCOC)cc3)ncc2F)c1` [SPEBRUTINIB], 9.8 nM corresponded to half-maximal inhibition (IC50).
